The target of this experiment is T1, cynoCDH6 FL (cynomolgus, UniProt P55285 54-615 (human entry)).
T1 sequence: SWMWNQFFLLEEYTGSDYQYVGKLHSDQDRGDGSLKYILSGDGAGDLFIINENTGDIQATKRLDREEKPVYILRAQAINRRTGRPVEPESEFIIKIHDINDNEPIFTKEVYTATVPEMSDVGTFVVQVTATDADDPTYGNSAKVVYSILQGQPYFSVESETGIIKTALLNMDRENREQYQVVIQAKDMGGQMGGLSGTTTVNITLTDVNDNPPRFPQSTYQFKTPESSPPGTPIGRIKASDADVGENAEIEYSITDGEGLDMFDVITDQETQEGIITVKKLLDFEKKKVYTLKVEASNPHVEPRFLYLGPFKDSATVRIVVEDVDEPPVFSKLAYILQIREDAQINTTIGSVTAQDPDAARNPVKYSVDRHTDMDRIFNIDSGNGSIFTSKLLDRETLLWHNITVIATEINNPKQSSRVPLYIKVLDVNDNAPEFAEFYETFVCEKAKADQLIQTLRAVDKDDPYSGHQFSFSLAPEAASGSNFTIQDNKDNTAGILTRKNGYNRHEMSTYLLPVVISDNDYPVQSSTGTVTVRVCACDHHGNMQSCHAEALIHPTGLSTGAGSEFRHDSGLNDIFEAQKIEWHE
The experiment in a line: SPR. On the technique in general: In SPR one partner is held on a chip, and binding of the other changes the refractive index at the surface.

B1: NOV0710 (antibody, human IgG1, kappa, V domains shown)
VH: QVQLLESGGGLVQPGGSLRLSCAASGFTFSSYAMSWVRQAPGKGLEWVSVIRSSGSSTYYADSVKGRFTISRDNSKNTLYLQMNSLRAEDTAVYYCARGGGYFDYWGQGTLVTVSS
VL: DIQMTQSPSSLSASVGDRVTITCRASQSISLWLNWYQQKPGKAPKLLIYAASTLQSGVPSRFSGSGSGTDFTLTISSLQPEDFATYYCQQYYTSPYTFGQGTKVEIKR
For B1, the Kd was determined as 3.84 nM. That is a single-digit nanomolar value.

A word on the Kd: it is the constant that tells how readily two partners part at equilibrium. A higher Kd goes with weaker binding.

(Values after patent publication US20170224836A1 (Novartis, published 2017).)
